Experimental data: patent US20200325505A1, “FILAMENTOUS FUNGI CAPABLE OF PRODUCING VERY LONG CHAIN FATTY ACIDS” (UT-Battelle, LLC, priority 2019, published 2020)

Test system: Mortierella elongata AG77
Assay: Carbon source utilisation in Biolog 96-well plates, formazan formation after tetrazolium addition
Format: cell-based
Conditions: compound as carbon source; Toxic = less formazan formation than a control containing no carbon source
Procedure: Two 300 mL volumes of growth medium comprising 1 g/L KH2PO4, 1 g/L MgSO4 7H2O, 0.1 g/L CaCl2, 0.02 g/L FeNaEDTA, 0.1 g/L NaCl, and either 1 g/L NH4NO3 or 20 g/L sucrose were prepared. Acidity was adjusted to 5.5 using NaOH and volumes of growth medium were autoclaved 30 min at 121° C. to sterilize. Aliquots of 200 μL of carbon-free medium or nitrogen-free medium were pipetted into each well of a set of 96-well plates previously prepared with lyophilized putative carbon or nitrogen sources (Biolog Inc., Hayward, Calif.). Inocula were prepared by perforating a culture of Mortierella elongata AG77 grown on 20 g/L potato dextrose agar with a 3 mm diameter cork borer and separating the surface mycelial mat from the solid growth medium using tweezers. Each well was inoculated with one inoculum. Cultures were incubated at 21° C. for 24 hours to allow metabolic changes to stabilize, and then 100 μL of 3 g/L tetrazolium chloride in water was added to each well. Formazan formation was observed visually at 2 h, 24 h, and 148 h.
Conclusions were based on rate and intensity of formazan formation using the 3-4,5-dimethylthiazol-2-yl)-2,5-diphenyltetrazolium bromide (MTT) assay. “Metabolized” indicates more formazan formation than a control containing no carbon source, and “Toxic” indicates less formazan formation than a control containing no carbon source. […]

Gentiobiose was tested, and the Toxic was “no”.
